Test results as given in patent US8268869B2, “Vinyl indazolyl compounds” (Eli Lilly and Company, priority 2009, dated 2012).

Test system: bFGF induced ERK phosphorylation
Details: female nude mice, oral gavage, 2 hours, bFGF i.v., heart tissue

C[C@@H](Oc1ccc2[nH]nc(/C=C/c3cnn(CCO)c3)c2c1)c1c(Cl)cncc1Cl [Example 1, (R)-(E)-2-(4-(2-(5-(1-(3,5-Dichloropyridin-4-yl)ethoxy)-1H-indazol-3-yl)vinyl)-1H-pyrazol-1-yl)ethanol]
TEC90 (concentration necessary to achieve 90% inhibition of phospho-Erk): 28 nM
